Target: T1, CSF-1R (His-tagged kinase domain, amino acids 568-912) (Homo sapiens, UniProt P07333)
T1 construct: The His-tagged kinase domain of CSF-1R (i.e., amino acids 568-912, GeneBank ID NM_005211); His; made in house; host or cells: baculovirus infected SF+Express insect cells
T1 sequence (P07333 568-912): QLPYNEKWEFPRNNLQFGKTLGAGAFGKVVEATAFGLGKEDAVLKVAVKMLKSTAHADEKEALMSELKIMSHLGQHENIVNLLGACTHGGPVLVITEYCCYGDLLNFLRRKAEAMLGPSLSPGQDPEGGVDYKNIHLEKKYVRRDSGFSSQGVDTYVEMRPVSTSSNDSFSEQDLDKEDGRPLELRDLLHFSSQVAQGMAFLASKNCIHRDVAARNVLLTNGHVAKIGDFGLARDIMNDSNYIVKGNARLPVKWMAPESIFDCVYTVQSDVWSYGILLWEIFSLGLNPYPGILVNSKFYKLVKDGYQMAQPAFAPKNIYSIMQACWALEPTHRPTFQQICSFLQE
Experiment: Assay 1: CSF-1R in vitro AlphaScreen Assay
Assay type: biochemical
Procedure: Assay 1: CSF-1R in vitro AlphaScreen Assay
Activity of purified CSF-1R was determined in vitro using an Amplified Luminescent Proximity Homogeneous Assay (ALPHA) (Perkin Elmer), which measures phosphorylation of the CSF-1R substrate, biotinylated poly-glutamine-tyrosine peptide (pEY-HTRF CisBio 61GT0BLD), as described below.
The phosphorylation of the CSF-1R substrate in the presence and absence of the compound of interest was determined. […] Plates were incubated at 25° C. for 18 hours in the dark. Phosphorylated substrate was detected by an EnVision plate reader (Perkin Elmer) 680 nm excitation, 520-620 nm emission. Data was graphed and IC50s calculated using Excel Fit (Microsoft).

Q: How did the IC50 turn out when `CCOc1cc2nnc(C(N)=O)c(Nc3ccc(F)cc3F)c2cc1N1CCN(C)CC1` [Example 7, 4-[(2,4-Difluorophenyl)amino]-7-ethoxy-6-(4-methylpiperazin-1-yl)cinnoline-3-carboxamide] was run?
A: Its IC50 is < 4 nM.

Reference: US20110098283A1, “3-CINNOLINECARBOXAMIDE DERIVATIVES AND THEIR USE FOR TREATING CANCER” (ASTRAZENECA AB, priority 2007, published 2011)
